# pKi: −log10 of the molar value. Where “and” joins values, the source holds several entries; their conditions need not be identical. Equal values may be shown once. Where a name gives a salt, the structure may show the parent alone.
# Sequences of proteins named here, by UniProt entry; tags and fusion partners are left off. Residues count along the entry.
# UniProt P02710, 25-461 limits assumed: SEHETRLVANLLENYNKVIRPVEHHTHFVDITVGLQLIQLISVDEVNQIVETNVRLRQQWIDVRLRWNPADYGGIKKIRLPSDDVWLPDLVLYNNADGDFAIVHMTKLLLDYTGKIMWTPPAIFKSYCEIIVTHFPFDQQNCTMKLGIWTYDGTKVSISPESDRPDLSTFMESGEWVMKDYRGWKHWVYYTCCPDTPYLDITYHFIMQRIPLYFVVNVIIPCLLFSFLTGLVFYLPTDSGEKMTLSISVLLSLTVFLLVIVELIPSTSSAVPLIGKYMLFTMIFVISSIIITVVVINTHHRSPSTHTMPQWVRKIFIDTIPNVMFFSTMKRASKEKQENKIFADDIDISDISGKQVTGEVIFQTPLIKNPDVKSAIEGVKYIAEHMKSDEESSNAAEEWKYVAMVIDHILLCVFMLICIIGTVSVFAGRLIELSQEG
# UniProt P02712, 25-493 limits assumed: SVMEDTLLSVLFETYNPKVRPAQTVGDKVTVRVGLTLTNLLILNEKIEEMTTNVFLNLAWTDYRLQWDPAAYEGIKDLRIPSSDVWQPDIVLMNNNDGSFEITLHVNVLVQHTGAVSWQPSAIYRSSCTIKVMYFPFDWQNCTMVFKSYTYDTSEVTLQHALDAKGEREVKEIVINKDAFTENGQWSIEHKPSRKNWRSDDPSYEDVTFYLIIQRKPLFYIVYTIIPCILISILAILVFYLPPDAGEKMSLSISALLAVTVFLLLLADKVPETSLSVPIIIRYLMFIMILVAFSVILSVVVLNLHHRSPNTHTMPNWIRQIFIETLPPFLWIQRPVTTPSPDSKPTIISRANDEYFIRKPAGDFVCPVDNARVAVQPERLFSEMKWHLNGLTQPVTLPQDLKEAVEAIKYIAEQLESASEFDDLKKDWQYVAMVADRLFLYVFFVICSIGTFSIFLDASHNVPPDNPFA
# UniProt P02714, 18-506 limits assumed: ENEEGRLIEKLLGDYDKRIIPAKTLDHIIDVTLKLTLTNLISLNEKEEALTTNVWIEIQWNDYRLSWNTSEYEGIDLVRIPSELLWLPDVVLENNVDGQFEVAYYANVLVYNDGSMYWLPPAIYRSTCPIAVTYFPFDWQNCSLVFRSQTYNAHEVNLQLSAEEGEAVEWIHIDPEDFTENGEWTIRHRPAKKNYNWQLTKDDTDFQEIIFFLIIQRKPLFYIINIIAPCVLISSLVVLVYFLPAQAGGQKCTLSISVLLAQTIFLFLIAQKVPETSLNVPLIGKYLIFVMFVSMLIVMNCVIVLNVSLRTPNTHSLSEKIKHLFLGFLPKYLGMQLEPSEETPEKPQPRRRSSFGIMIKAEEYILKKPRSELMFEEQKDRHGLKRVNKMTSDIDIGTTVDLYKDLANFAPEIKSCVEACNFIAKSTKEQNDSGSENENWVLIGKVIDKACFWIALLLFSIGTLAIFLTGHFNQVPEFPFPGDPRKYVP
# UniProt P02718, 22-522 limits assumed: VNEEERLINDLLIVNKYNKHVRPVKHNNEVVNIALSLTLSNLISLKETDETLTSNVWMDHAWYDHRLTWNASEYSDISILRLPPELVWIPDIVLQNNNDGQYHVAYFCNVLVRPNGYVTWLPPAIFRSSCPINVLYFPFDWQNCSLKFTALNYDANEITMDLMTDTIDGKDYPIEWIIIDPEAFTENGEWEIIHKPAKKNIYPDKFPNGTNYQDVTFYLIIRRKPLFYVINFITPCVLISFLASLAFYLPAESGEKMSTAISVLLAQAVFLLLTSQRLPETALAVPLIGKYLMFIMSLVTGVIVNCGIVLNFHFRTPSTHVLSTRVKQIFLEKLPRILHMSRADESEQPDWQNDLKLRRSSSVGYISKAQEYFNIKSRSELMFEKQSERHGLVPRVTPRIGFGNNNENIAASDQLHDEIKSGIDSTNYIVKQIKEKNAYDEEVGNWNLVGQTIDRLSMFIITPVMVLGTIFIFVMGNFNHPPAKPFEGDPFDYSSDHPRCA
# UniProt P58154, 20-229 limits assumed: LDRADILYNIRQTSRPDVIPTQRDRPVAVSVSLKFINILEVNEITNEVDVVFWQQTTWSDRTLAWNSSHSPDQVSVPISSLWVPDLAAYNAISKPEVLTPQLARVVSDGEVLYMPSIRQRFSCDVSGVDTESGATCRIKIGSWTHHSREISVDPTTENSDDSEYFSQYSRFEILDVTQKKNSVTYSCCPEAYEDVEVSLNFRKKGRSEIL
# UniProt P36544, 23-502 limits assumed: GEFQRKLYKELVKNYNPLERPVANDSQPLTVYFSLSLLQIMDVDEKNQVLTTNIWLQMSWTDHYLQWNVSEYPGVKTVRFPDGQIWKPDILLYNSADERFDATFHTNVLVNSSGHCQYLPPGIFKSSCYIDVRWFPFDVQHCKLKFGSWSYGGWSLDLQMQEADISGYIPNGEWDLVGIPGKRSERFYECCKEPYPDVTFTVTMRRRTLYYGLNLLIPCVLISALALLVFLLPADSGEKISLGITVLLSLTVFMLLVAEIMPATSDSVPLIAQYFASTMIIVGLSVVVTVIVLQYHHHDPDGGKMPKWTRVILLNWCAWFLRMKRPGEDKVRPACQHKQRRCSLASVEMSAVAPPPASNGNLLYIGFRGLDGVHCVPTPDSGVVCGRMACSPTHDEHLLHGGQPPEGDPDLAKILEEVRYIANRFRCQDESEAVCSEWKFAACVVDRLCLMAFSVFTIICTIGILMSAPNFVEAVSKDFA
# Columns and labels:
# [1] = biological target: muscle-type nAChR from T. californica (Tetronarce californica, UniProt P02710+P02712+P02714+P02718); test: radioligand assay, competition with [125I]-αBgt for binding to Torpedo nAChR; conditions: for preference for muscle-type (T. californica) nAChR over human α7 nAChR: in competition with [125I]-αBgt; for pKi: read-out: Ki Values on T. californica nAChR, competition with [125I]-αBgt, electric organ membranes, Cheng-Prusoff, mean ± s.e.m.
# L. stagnalis AChBP = L. stagnalis AChBP (Lymnaea stagnalis, UniProt P58154); test: radioligand assay, competition with [125I]-αBgt for binding to AChBP; conditions: read-out: Experimental Ki values at interaction with L. stagnalis AChBP from radioligand assay, IC50 converted by Cheng-Prusoff, mean ± s.e.m.
# human neuronal α7 nAChR = human neuronal α7 nAChR (Homo sapiens, UniProt P36544); test: radioligand assay, competition with [125I]-αBgt for binding to α7 nAChR in GH4C1 cells; conditions: read-out: Ki Values on human α7 nAChR, Cheng-Prusoff, mean ± s.e.m.
Compound,preference for muscle-type (T. californica) nAChR over human α7 nAChR [1],pKi [1],pKi (L. stagnalis AChBP),pKi (human neuronal α7 nAChR)
CC[C@@H]1C=CCC[C@]2(C[C@H]3CC[C@H]4C[C@@]5(CCC[C@H](C)O5)NC(=N2)N34)O1 [listing 1 of 2 here],twenty-fold,,,
Cn1c(=N)c2nc[nH]c2n(C)c1=O,,≤ 3.00,< 3.00,≤ 3.00
CC[C@@H]1C=CCC[C@]2(C[C@H]3CC[C@H]4C[C@@]5(CCC[C@H](C)O5)NC(=N2)N34)O1 [listing 2 of 2 here],,4.77,4.57,3.51
"C[C@@H](N)[C@H](O)CCCCCCCC(=O)CCCCCCCCCCCCCC[C@@H](O[C@@H]1O[C@H](CO)[C@H](O)[C@H](O)[C@H]1O)[C@@H](C)N [Compound 1, Rhizochalin]",,4.22 to 4.70 and 4.66,4.55,4.22 to 4.70 and 4.48
"C[C@@H](N)[C@H](O)CCCCCCCCCCCCCCC(=O)CCCCCCC[C@@H](O)[C@@H](C)N [Compound 2, aglycone of rhizochalin]",,4.22 to 4.70 and 4.62,3.89,
"C[C@@H]1C[C@@H]2c3cccc4[nH]c(Br)c(c34)C[C@H]2N(C)C1 [Compound 3, pibocin]",,4.36,6.08,3.89
"COc1cc(CCN)c2c(c1OC)SSSSS2 [Compound 4, Varacin]",,5.00,6.10,4.72
"C[N+]1=C2C=C(N)C(=O)c3[nH]cc(c32)CC1 [Compound 5, makaluvamine C]",,5.89,5.89,5.44
"Cn1cc2c3c1C(=O)C(N/C=C/c1ccc(O)cc1)=CC3=[N+](C)CC2 [Compound 6, makaluvamine G]",ten-fold,5.80,6.26,4.74
"NC1=N/C(=C2/CCNC(=O)c3[nH]ccc32)C(=O)N1 [Compound 7, Debromohymenialdesine]",,≤ 3.00,< 3.00,≤ 3.00
"C[n+]1ccccc1-c1cccc[n+]1C [Compound 8, 1,1′-Dimethyl-[2,2′]-bipyridyldiium salt]",,≤ 3.00,3.27,≤ 3.00
"O=C1NCCc2cncn21 [Compound 10, 7,8-Dihydroimidazo-[1,5-c]-pyrimidin-5(6H)-one]",,≤ 3.00,< 3.00,≤ 3.00
"COc1cc2ccnc3c2c(c1OC)NC=C3 [Compound 12, Aaptamine]",,4.47,5.52,3.92
"CC/C=C/[C@@H]1CC[C@]2(C[C@H]3CC[C@H]4[C@@H](C(=O)OC(CC)CCCCCCCCCCCCC[C@@H]5O[C@](O)(CCN)[C@H](O)N(CCCN)C5=O)[C@@]5(CCC[C@H](C)O5)NC(=N2)N34)O1 (stereo partly shown) [Compound 13, monanchocidin]",,5.10,5.60,4.42

# Reference: publication PMC4012456 (Marine Drugs, 2014)
